Measured values: PubChem BioAssay AID651699 (Sanford-Burnham Center for Chemical Genomics, 2012)
The list shows a part of the results, in another mix than the full data. The source made the active and inactive calls. No stated cut-off is given here; in the data, active means inhibition above about 36%; inactive means the rest.

The chains behind the UniProt entries cited, without tags or fusion partners.
UniProt P61081, whole entry, looked up: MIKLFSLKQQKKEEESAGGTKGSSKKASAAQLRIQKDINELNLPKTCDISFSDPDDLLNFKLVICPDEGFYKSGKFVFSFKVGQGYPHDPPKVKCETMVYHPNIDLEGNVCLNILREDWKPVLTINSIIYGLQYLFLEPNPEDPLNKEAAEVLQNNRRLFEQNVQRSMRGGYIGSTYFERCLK
UniProt Q13564, whole entry, looked up: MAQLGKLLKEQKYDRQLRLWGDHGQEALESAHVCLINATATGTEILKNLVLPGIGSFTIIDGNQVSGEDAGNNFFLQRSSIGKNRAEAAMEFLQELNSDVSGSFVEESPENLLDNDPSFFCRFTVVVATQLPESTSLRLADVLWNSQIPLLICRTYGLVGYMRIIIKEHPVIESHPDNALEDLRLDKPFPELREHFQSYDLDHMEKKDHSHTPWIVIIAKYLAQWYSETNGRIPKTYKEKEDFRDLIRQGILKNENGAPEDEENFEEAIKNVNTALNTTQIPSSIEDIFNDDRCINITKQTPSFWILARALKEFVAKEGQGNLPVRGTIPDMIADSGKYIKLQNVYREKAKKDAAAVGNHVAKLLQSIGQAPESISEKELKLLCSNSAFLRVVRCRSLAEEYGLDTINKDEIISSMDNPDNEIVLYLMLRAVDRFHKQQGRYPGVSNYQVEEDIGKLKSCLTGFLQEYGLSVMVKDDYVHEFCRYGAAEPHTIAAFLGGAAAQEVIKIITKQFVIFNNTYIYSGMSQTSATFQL

Target: NEDD8-conjugating enzyme Ubc12 (Homo sapiens) + NEDD8-activating enzyme E1 regulatory subunit (Homo sapiens) (UniProt P61081+Q13564)
Assay: inhibitors of cullin neddylation, primary screen, biochemical, TR-FRET, uHTS, NAE and Ubc12 (AID 651699)
Conditions: at 25 µM, stronger effect = higher value

SMILES	inhibition
CN1CCC(Nc2ccc(F)c(Cl)c2)CC1	inactive: 2.95%
CCOc1ncccc1C(=O)NCC1(N2CCOCC2)CCCCC1	inactive: -2.02%
CCCOc1ccc(C(=O)NCC2(N(C)C)CCCCC2)cc1	inactive: -4.1%
O=c1[nH]c2ccccc2n1C1CCN(C(c2cc3ccccc3o2)c2nnnn2C2CCCC2)CC1 (stereo not drawn)	inactive: -23.4%
NN(c1ccccc1)C1CCN(CCc2ccccc2)CC1	inactive: -1.08%
O=C(O)C1(Nc2ccccc2)CCN(Cc2ccccc2)CC1	inactive: -9.6%
CC(C)(C)OC(=O)N1CCC(Nc2ccccc2)CC1	inactive: 5.82%
CCC(CO)(C(=O)OC1CN2CCC1CC2)c1ccccc1 (stereo not drawn)	inactive: -0.39%
COc1cccc(C(=O)N(c2cc(C)cc(C)c2)C2CCN(C(=O)OC(C)(C)C)CC2)c1	inactive: 1.31%
COc1cc(OC)cc(C(=O)NCC2(N3CCOCC3)CCCCC2)c1	inactive: 3.84%
COc1cccc(C(c2nnnn2C2CCCC2)N2CCC(n3c(=O)[nH]c4ccccc43)CC2)c1OC (stereo not drawn)	inactive: 6.01%
CN1CCC(Nc2ccc(Cl)cc2)CC1	inactive: 2.29%
O=c1[nH]c2ccccc2n1C1CCN(C(c2ccnc3ccccc23)c2nnnn2C2CCCCC2)CC1 (stereo not drawn)	inactive: -2.63%
COc1cc(OC)cc(C(=O)NCC2(N3CCCCC3)CCCCC2)c1	inactive: 11.3%
CCC(c1nnnn1C1CCCCC1)N1CCC(n2c(=O)[nH]c3ccccc32)CC1 (stereo not drawn)	inactive: 4.28%
CC(=O)N(c1ccccc1)C1CCNCC1	inactive: 9.18%
COc1cccc(C(c2nnnn2C2CCCCC2)N2CCC(n3c(=O)[nH]c4ccccc43)CC2)c1OC (stereo not drawn)	inactive: -6.69%
Cc1ccc(NC2(C#N)CCN(Cc3ccccc3)CC2)cc1	inactive: 1.55%
Fc1ccccc1NC1CCN(Cc2ccccc2)CC1	inactive: 0.57%
Cc1ccc(C(=O)NCC2(N3CCCCC3)CCCCC2)o1	inactive: -0.1%
CC(C)(C)n1nnnc1C(c1ccnc2ccccc12)N1CCC(n2c(=O)[nH]c3ccccc32)CC1 (stereo not drawn)	inactive: 11.6%
CCN1CCC(Nc2cccc(F)c2)CC1	inactive: 4.81%

SMILES	inhibition
COc1ccc(C(c2nnnn2C2CCCCC2)N2CCC(n3c(=O)[nH]c4ccccc43)CC2)cc1 (stereo not drawn)	inactive: 6.03%
Cc1ccccc1NC1(C#N)CCN(Cc2ccccc2)CC1	inactive: -3.44%
Cn1c(=O)[nH]cc(N(CCCl)CCCl)c1=O	inactive: 0.83%
CN(C)c1ccc(C(=O)NCC2(N3CCCCC3)CCCCC2)cc1	inactive: 2.39%
O=C(NCC1(N2CCCCC2)CCCCC1)c1ccco1	inactive: -18.6%
CC(C)(C)OC(=O)N1CCC(N(C(=O)c2ccccc2)c2ccc(Cl)cc2)CC1	inactive: -5.67%
N#Cc1ccc(C(=O)NCC2(N3CCCCC3)CCCCC2)cc1	inactive: 0.54%
Cc1cc(N(CCCl)CCCl)ccc1C=O	inactive: -2.74%
O=c1[nH]c2ccccc2n1C1CCN(C(c2ccccc2)c2nnnn2C2CCCC2)CC1 (stereo not drawn)	inactive: -4.61%
CCCN1CCC(Nc2cc(OC)cc(OC)c2)CC1	inactive: 17.4%
c1ccc(CN2CCC(Nc3ccccc3)CC2)cc1	inactive: -1.95%
CN(C)C1(CNC(=O)c2cccc(C#N)c2)CCCCC1	inactive: 0.12%
CC(C)(C)n1nnnc1C(c1cccc2ccccc12)N1CCC(n2c(=O)[nH]c3ccccc32)CC1 (stereo not drawn)	inactive: 3.67%
O=C(NCC1(N2CCOCC2)CCCCC1)c1cc(Br)ccc1Cl	inactive: 13.8%
COc1cc(C(=O)NCC2(N3CCOCC3)CCCCC2)cc(OC)c1C	inactive: -18.8%
CCCCn1nnnc1C(c1ccccc1)N1CCC(n2c(=O)[nH]c3ccccc32)CC1 (stereo not drawn)	inactive: -9.75%
O=c1[nH]c2ccccc2n1C1CCN(C(c2ccnc3ccccc23)c2nnnn2C2CCCC2)CC1 (stereo not drawn)	inactive: -8.68%
COc1ccc(C(=O)NCC2(N3CCOCC3)CCCCC2)cc1OC	inactive: -1.77%
O=c1[nH]c2ccccc2n1C1CCN(C(c2cccs2)c2nnnn2C2CCCCC2)CC1 (stereo not drawn)	inactive: -5.73%
N/C(=N\O)c1c(N)no[n+]1[O-]	inactive: -0.67%
COc1cccc(C(c2nnnn2C(C)(C)C)N2CCC(n3c(=O)[nH]c4ccccc43)CC2)c1OC (stereo not drawn)	inactive: -1.22%
CCOC(=O)N1CCC(Nc2ccc(C)cc2)CC1	inactive: -6.48%

SMILES	inhibition
CCCCn1nnnc1C(c1cccc(OC)c1OC)N1CCC(n2c(=O)[nH]c3ccccc32)CC1 (stereo not drawn)	inactive: 3.77%
O=c1[nH]c2ccccc2n1C1CCN(C(c2cccs2)c2nnnn2C2CCCC2)CC1 (stereo not drawn)	inactive: -3.75%
O=C(OC1CN2CCC1CC2)C1c2ccccc2C=Cc2ccccc21 (stereo not drawn)	inactive: 24.2%
CN(C)c1cccc(C(=O)NCC2(N3CCCCC3)CCCCC2)c1	inactive: 38.2%
COc1ccc(CN(CCCl)CCCl)cc1Cl	inactive: -8.38%
CCCCn1nnnc1C(c1ccccc1OC(F)(F)F)N1CCC(n2c(=O)[nH]c3ccccc32)CC1 (stereo not drawn)	inactive: 5%
CC(C)c1ccc(NC2CCN(C(=O)OC(C)(C)C)CC2)cc1	inactive: -4.06%
CCCCn1nnnc1C(c1ccnc2ccccc12)N1CCC(n2c(=O)[nH]c3ccccc32)CC1 (stereo not drawn)	inactive: -19%
O=C(NCC1(N2CCOCC2)CCCCC1)c1cc(F)c(F)cc1Cl	inactive: -0.89%
CCC(c1nnnn1C(C)(C)C)N1CCC(n2c(=O)[nH]c3ccccc32)CC1 (stereo not drawn)	inactive: -1.38%
COc1cc(OC)c(C(=O)NCC2(N(C)C)CCCCC2)cc1OC	inactive: 7.76%
O=C(NCC1(N2CCCCC2)CCCCC1)c1cncc(Br)c1	inactive: 2.27%
CN1CCC(Nc2cccc(F)c2)CC1	inactive: 6.06%
CCCOc1ccc(C(=O)NCC2(N(C)C)CCCCC2)cc1OC	inactive: -1.12%
Cc1ccc(C(=O)NCC2(N(C)C)CCCCC2)o1	inactive: 10.8%
COc1ccc(C(c2nnnn2C2CCCC2)N2CCC(n3c(=O)[nH]c4ccccc43)CC2)cc1 (stereo not drawn)	inactive: -1.59%
O=C(NCC1(N2CCCCC2)CCCCC1)c1ccc(OC(F)F)cc1	inactive: -9.56%
CC(C)(C)n1nnnc1C(c1ccccc1OC(F)(F)F)N1CCC(n2c(=O)[nH]c3ccccc32)CC1 (stereo not drawn)	inactive: 2.11%
O=C(NCC1(N2CCCCC2)CCCCC1)c1cccc([N+](=O)[O-])c1	inactive: -1.83%
CSc1ccc(C(=O)NCC2(N3CCOCC3)CCCCC2)cc1	inactive: -2.63%
N#CC1(Nc2ccccc2)CCN(CCc2ccccc2)CC1	inactive: -2.35%
O=c1[nH]c2ccccc2n1C1CCN(C(c2ccccc2OC(F)(F)F)c2nnnn2C2CCCC2)CC1 (stereo not drawn)	inactive: -6.56%

SMILES	inhibition
CCN1CCC(Nc2ccc(Cl)cc2)CC1	inactive: 1.63%
O=C(NCC1(N2CCCCC2)CCCCC1)c1cccc(C(F)(F)F)c1	inactive: 1.65%
CCCCn1nnnc1C(c1cccc2ccccc12)N1CCC(n2c(=O)[nH]c3ccccc32)CC1 (stereo not drawn)	inactive: 1.37%
CC(C)c1ccc(C(=O)NCC2(N3CCOCC3)CCCCC2)cc1	inactive: -0.48%
COc1ccc(NC2CCN(C(=O)OC(C)(C)C)CC2)cc1	inactive: -3.1%
CN1CCN(CCOC(=O)C(O)(c2ccccc2)c2ccccc2)CC1	inactive: 0.43%
O=C(NCC1(N2CCOCC2)CCCCC1)c1cc(=O)[nH]c2ccccc12	inactive: 17.2%
COc1cc(C(=O)NCC2(N3CCCCC3)CCCCC2)ccc1OC(F)F	inactive: 3.66%
CCOc1ccc(C)cc1CN(CCCl)CCCl	inactive: -0.4%
O=C1CCN(Cc2ccccc2)CC1	inactive: 0.31%
CC(C)(C)n1nnnc1C(c1ccccc1)N1CCC(n2c(=O)[nH]c3ccccc32)CC1 (stereo not drawn)	inactive: 3.57%
CCOC(=O)N1CCC(Nc2ccc(F)cc2)CC1	inactive: -3.25%
COc1ccc(NC2CCN(CCc3ccccc3)CC2)c(OC)c1	inactive: -14.4%
O=C(NCC1(N2CCCCC2)CCCCC1)c1ccc(F)cc1	inactive: -10.6%
CCCCOc1ccc(C(=O)NCC2(N3CCOCC3)CCCCC2)cc1	inactive: 0.23%
CCCCn1nnnc1C(c1cc2ccccc2o1)N1CCC(n2c(=O)[nH]c3ccccc32)CC1 (stereo not drawn)	inactive: -2.95%
O=P1(N(CCCl)CCCl)SCCCS1	inactive: 2.06%
O=c1[nH]c2ccccc2n1C1CCN(C(c2ccccc2)c2nnnn2C2CCCCC2)CC1 (stereo not drawn)	inactive: 0.44%
O=c1[nH]c2ccccc2n1C1CCN(C(c2cccc3ccccc23)c2nnnn2C2CCCC2)CC1 (stereo not drawn)	inactive: -7.6%
COc1cc(C(=O)NCC2(N(C)C)CCCCC2)ccc1OC(F)F	inactive: 4.53%
CCOC(=O)N1CCC(Nc2cccc(C)c2)CC1	inactive: -1.22%
CCCCn1nnnc1C(c1cccs1)N1CCC(n2c(=O)[nH]c3ccccc32)CC1 (stereo not drawn)	inactive: 6.83%

SMILES	inhibition
O=C(NCC1(N2CCCCC2)CCCCC1)c1cccs1	inactive: 1.04%
CCCCn1nnnc1C(CC)N1CCC(n2c(=O)[nH]c3ccccc32)CC1 (stereo not drawn)	inactive: 7.43%
O=C(NCC1(N2CCCCC2)CCCCC1)c1ccc(=O)[nH]c1	inactive: -3.1%
CCC(c1nnnn1C1CCCC1)N1CCC(n2c(=O)[nH]c3ccccc32)CC1 (stereo not drawn)	inactive: 0.41%
CC(C)(C)OC(=O)N1CCC(N(C(=O)c2ccccc2)c2ccc(F)cc2)CC1	inactive: -1.62%
COc1ccc(C(=O)NCC2(N3CCCCC3)CCCCC2)c(OC)c1OC	inactive: 7.76%
COc1ccc(C(=O)NCC2(N3CCCCC3)CCCCC2)cc1	inactive: -3.58%
Cc1cccc(NC2(C#N)CCN(Cc3ccccc3)CC2)c1	inactive: -2.3%
CSc1ccccc1C(=O)NCC1(N2CCCCC2)CCCCC1	inactive: -0.33%
O=C(NCC1(N2CCOCC2)CCCCC1)c1cc2ccccc2o1	inactive: 9.38%
Cc1cc(C)cc(N(C(=O)c2ccccc2)C2CCN(C(=O)OC(C)(C)C)CC2)c1	inactive: 3.69%
O=c1[nH]c2ccccc2n1C1CCN(C(c2ccccc2OC(F)(F)F)c2nnnn2C2CCCCC2)CC1 (stereo not drawn)	inactive: -0.56%
O=C(NCC1(N2CCCCC2)CCCCC1)c1ccc(Cl)nc1	inactive: 16%
CCCCn1nnnc1C(c1ccc(OC)cc1)N1CCC(n2c(=O)[nH]c3ccccc32)CC1 (stereo not drawn)	inactive: 1.84%
CCOC(=O)N1CCC(Nc2ccc(OC)cc2)CC1	inactive: -2.67%
COc1ccc(Cl)cc1C(=O)NCC1(N2CCOCC2)CCCCC1	inactive: 0.84%
O=c1[nH]c2ccccc2n1C1CCN(C(c2cc3ccccc3o2)c2nnnn2C2CCCCC2)CC1 (stereo not drawn)	inactive: -23.1%
O=C(OC1CN2CCC1CC2)C1c2ccccc2Oc2ccccc21 (stereo not drawn)	inactive: -1.37%
O=C(NCC1(N2CCCCC2)CCCCC1)c1ccc(Cl)s1	inactive: -8.79%
N#CC1(Nc2ccccc2)CCN(Cc2ccccc2)CC1	inactive: -1.28%
